Sequences of proteins named here, by UniProt entry; tags and fusion partners are left off.
UniProt P14735, whole entry: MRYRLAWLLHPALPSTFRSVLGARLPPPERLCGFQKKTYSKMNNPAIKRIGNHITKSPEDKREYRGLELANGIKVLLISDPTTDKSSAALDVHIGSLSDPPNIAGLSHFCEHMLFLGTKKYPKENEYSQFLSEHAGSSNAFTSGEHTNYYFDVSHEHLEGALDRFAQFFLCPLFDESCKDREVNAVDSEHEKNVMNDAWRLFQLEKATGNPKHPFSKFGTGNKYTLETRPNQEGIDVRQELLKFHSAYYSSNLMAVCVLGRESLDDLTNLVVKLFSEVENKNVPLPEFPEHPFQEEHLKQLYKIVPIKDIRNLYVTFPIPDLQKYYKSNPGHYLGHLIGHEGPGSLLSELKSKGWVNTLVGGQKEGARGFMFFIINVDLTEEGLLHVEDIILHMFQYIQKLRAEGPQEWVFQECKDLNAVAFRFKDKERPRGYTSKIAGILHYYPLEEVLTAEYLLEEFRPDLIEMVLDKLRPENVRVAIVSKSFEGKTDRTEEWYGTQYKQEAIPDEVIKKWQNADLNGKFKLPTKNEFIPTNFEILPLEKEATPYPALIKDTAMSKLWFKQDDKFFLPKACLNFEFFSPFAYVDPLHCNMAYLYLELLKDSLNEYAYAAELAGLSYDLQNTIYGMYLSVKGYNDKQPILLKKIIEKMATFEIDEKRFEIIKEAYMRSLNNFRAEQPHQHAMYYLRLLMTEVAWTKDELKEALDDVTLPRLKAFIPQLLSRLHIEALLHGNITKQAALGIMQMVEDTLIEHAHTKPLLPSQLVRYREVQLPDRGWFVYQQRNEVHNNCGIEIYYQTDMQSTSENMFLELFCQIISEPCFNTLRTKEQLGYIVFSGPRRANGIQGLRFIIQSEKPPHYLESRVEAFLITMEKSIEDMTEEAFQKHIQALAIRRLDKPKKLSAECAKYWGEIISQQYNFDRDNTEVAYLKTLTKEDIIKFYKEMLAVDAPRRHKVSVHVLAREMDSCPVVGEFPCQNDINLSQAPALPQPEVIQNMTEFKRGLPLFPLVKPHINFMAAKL

According to publication PMC2866327, “Designed Inhibitors of Insulin-Degrading Enzyme Regulate the Catabolism and Activity of Insulin” (PLoS ONE, 2010):

Experiments:
[1] = test system: other zinc-metalloproteases (NEP, ECE1, ACE1, MMP1)
[2] = target: IDE (Homo sapiens, UniProt P14735); experiment: In vitro IDE enzymatic assay (hydrolysis of FRET1, SP1, FAβB, 125I-insulin or insulin by HTRF); format: biochemical; design: made in house; host or cells: bacteria

Question: What does the source list for `N=C(N)NCCC[C@H](NC(=O)[C@@H](CC(=O)NO)Cc1ccc2ccccc2c1)C(=O)N[C@@H](Cc1c[nH]c2ccccc12)C(=O)N[C@@H](CCC(=O)O)C(N)=O` [Ii1]?
Answer: selectivity for IDE vis-à-vis other zinc-metalloproteases [1]: ~4 orders of magnitude; Ki with longer substrates (insulin, Aβ) relative to shorter substrates [2]: ~10 fold
